Test system: MX-1 human mammary tumor
Test: Anti-tumor effects in mice, subcutaneous MX-1 tumor implant
Settings: for Tumor-Free: tumor-free/animals
Excerpt: Female, 7 weeks old NCr-nu athymic nude mice were purchased from Charles River Laboratories (Raliegh, NC) and acclimated in the laboratories one week prior to experimentation. The animals were housed in microisolator cages, at five per cage, in a 12-hour light/dark cycle. The animals received filtered sterilized water and sterile rodent food ad libitum. Animals were observed daily, and clinical signs such as tumor shrinkage were noted.
Tumor Model. Thirty- to forty mg fragments of MX-1 human mammary tumor were implanted subcutaneously in mice near the right axillary area, using a 12-gauge trocar needle and allowed to grow. Tumors were allowed to reach 75-196 mg in weight (75-196 mm^3 in size) before the start of treatment.
Drug Treatment. Compound 3 was administered intraperitoneally for five consecutive days at dosages of 55, 75, and 100 mg/kg/dose. Compound 3 was formulated fresh daily at a concentration of 10mg/mL in 5% EtOH/45% propylene glycol/50% PBS. Dosing solutions were administered to mice within 4 hours of formulation. Compounds were administered by exact body weight, with the injection volume being 0.1mL/10g body weight.
Tumor measurements. The tumors were measured, and the animals were weighed twice weekly, starting with the first day of treatment. Tumor volume was determined by caliper measurements (mm) and using the formula for an ellipsoid sphere L x W^2/2=mm^3, where L and W refer to the larger and smaller dimensions collected at each measurement. This formula was also used to calculate tumor weight, assuming a unit density (1 mm^3 = 1 mg).
Study duration was 28 days after tumor implantation. Any animal whose tumor reached 4 g in weight was sacrificed prior to study termination.

[1] = 55 mg/kg/dose intraperitoneally for five consecutive days
[2] = 75 mg/kg/dose intraperitoneally for five consecutive days
[3] = 100 mg/kg/dose intraperitoneally for five consecutive days

O=P(OCCO)(N(CCCl)CCCl)N(CCCl)CCCl
Days to Doubling [1]: 7.2 days
Tumor Regression Complete Regression [1]: 0
Tumor Regression Partial Regression [1]: 0
Tumor-Free [1]: 0/8
Days to Doubling [2]: 8.1 days
Tumor Regression Complete Regression [2]: 0
Tumor Regression Partial Regression [2]: 0
Tumor-Free [2]: 0/8
Days to Doubling [3]: 7.7 days
Tumor Regression Complete Regression [3]: 0
Tumor Regression Partial Regression [3]: 0
Tumor-Free [3]: 0/8

Reference: EP1607399B1 (priority 2000, dated 2001)
